Test results published in patent publication US9006170B2, “Compositions for elastogenesis and connective tissue treatment” (Human Matrix Sciences, LLC, priority 2004, dated 2015).

Tested on: normal human skin fibroblasts
Experiment: Quantitative assay of insoluble elastin ([3H]-valine metabolic labeling) in fibroblast cultures
Type: cell-based

CNC(=S)NC [DMTU, dimethylthiourea]
increase in elastin production as compared to cultures treated with 200 μM iron alone (200 μM iron in the presence of DMTU): ~2 fold
increase in elastin deposition over untreated control (200 μM iron treatment with DMTU): ~2 fold
reversal of the inhibitory effect of 200 μM iron treatment on elastin deposition (antioxidant applied with 200 μM of iron): reversed the inhibitory effect
